Target: T1, M. avium DHFR (Mycobacterium avium, UniProt O30463)
T1 sequence (O30463 1-181): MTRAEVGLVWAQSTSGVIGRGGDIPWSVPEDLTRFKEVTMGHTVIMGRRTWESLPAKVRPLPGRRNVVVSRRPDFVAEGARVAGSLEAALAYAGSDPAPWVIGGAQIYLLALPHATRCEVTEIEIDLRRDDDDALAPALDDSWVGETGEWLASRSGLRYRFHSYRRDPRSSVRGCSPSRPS
Experiment: Inhibition of M. avium DHFR (literature assay)
Format: biochemical
Settings: compounds 3a-k

Row | Structure (SMILES) | IC50
1 | CCCCCCCCOc1ccc(OC)c(Cc2cnc(N)nc2N)c1 [Compound 3d, 2,4-Diamino-5-(2-methoxy-5-octyloxybenzyl)pyrimidine] | 3.3 µM
2 | COc1ccc(OCCCCCCCCC(=O)O)cc1Cc1cnc(N)nc1N [Compound 3k] | 0.15 µM

Source: patent US7119095B2, “Pharmaceutically active compounds and methods of use thereof” (Dana Farber Cancer Institute, priority 2001, dated 2006)
